Test results reported in PubChem BioAssay AID540303 (National Center for Advancing Translational Sciences (NCATS), 2011).
The list shows a part of the results, in another mix than the full data. Inconclusive results are not listed. Where a call stands in place of a potency, no number is given. The source made the active and inactive calls. The call rests on the fitted dose curve; in most records, active means well fitted inhibition curve with a large enough effect; inconclusive means small, poorly fitted or top-dose-only effect; inactive means no such curve, though single readings can be large or run the other way; tested in mouse RAW 264.7 cells.

Test: qHTS for Inhibitors of Cell Surface uPA Generation; further: nearly all actives have a fitted effect of over 55% in size
Settings: cell surface uPA generation assay; series mostly up to 38.3 µM
Excerpt: The overall objective of this project is to perform a quantitative high throughput screen (qHTS) to identify novel compounds that inhibit the generation of cell surface urokinase activity. The urokinase plasminogen activator (uPA) is one of the two primary endogenous systems that mediate plasminogen activation into plasmin. Members of this system, including uPA and its receptor (uPAR), are overexpressed in several malignant tumors. This system plays a major role in adhesion, migration, invasion and metastasis of cancer cells. Small molecule inhibitors of the uPA system will serve as probes to understand the molecular mechanisms of the uPA cascade and better understanding the microenvironmental circumstances that facilitate the activation of plasminogen by uPA, and finally may provide novel candidate agents for anticancer drug therapy.
[…] […] Upon inhibition of the uPA activation cascade, the subsequent cell surface uPA activity-dependent translocation of LF into the cytoplasm is inhibited. ATP-Lite is used to measure intracellular ATP concentrations, which remain increased if LF entry into the cytoplasm is inhibited. This validation assay was performed using a small set of validation compounds.
NIH Chemical Genomics Center [NCGC]
NIH Molecular Libraries Probe Centers Network [MLPCN]
Assay Submitter (PI): Thomas Bugge, National Institute of Dental and Craniofacial Research, NIH
Cultured RAW 264.7 were dispensed into 1536-well clear bottom, white walled tissue culture plates at a density of 4000 cells/well and were incubated overnight (12-16 h) at 37 C in a 5% CO2 incubator. Serially diluted compounds in 23 nl DMSO were added to cells. […] Compound and reagent-treated plates were incubated for 24 h at 37 C in a 5% CO2 incubator. Perkin Elmer ATPlitetrade mark 1 step (3 ul) was then added to each well. Luminescence was detected using a Perkin Elmer ViewLuxtrade mark plate reader.
1.Dispensing RAW 264.7 cells into 1536-well, white walled tissue culture plates at a density of 4000 cells/well (4 uL).
2.Incubation at 37 C in a 5% CO2 incubator overnight.
3.Serially diluting compounds (1:5 serial dilution; 0.0024 uM to […] final concentration) in 23 nl DMSO.
5.Incubating the compound and reagent-treated plates for 24 hours at 37 C in a 5% CO2 incubator.
6.Adding ATP-Lite (3 ul).
7.Reading plates by ViewLux with an exposure length of 5 seconds.
Potency means the concentration at half of the fitted maximal effect.

| Structure (SMILES) | Potency |
| --- | --- |
| Cc1ccc2nc3c(c(C)c2c1)CC(C(Cl)Cl)S3 (configuration not stated) | inactive |
| Cc1ccc(OP(=O)(Nc2ccc([N+](=O)[O-])cn2)Oc2ccc(C)cc2)cc1 | inactive |
| CC(C)c1ccc(OP(=O)(Nc2ccccn2)Oc2ccccc2F)cc1 (configuration not stated) | inactive |
| COC(=O)C1(C)COP(=O)(N2CCCCCC2)OC1 (configuration not stated) | inactive |
| ClCCSc1nnc(-c2cccnc2)o1 | inactive |
| O=C(OC1CN2CCC1CC2)c1cccc2[nH]cnc12 (configuration not stated) | inactive |
| CCN(CC)C(=S)SC(NC=O)C(Cl)(Cl)Cl (configuration not stated) | inactive |
| CC(C)NC(=O)NP(=O)(Oc1ccccc1)Oc1ccccc1 | inactive |
| O=[N+]([O-])c1cc([N+](=O)[O-])c(-c2ccn[nH]2)s1 | active: 12.6 µM |
| O=C(OC1CN2CCC1CC2)C12CC3CC(CC(C3)C1)C2 (configuration not stated) | inactive |
| Cc1cc(=O)[nH]c(N[N+](=O)[O-])n1 | inactive |
| Cc1c2c(nc3ccccc13)SC(C(Cl)Cl)C2 (configuration not stated) | inactive |
| COc1ccc2nc(NP(=O)(c3ccccc3)c3ccccc3)sc2c1 | inactive |
| COc1cc(I)ccc1[As](=O)(O)O | inactive |
| O=P1(N(CCCl)CCCl)Nc2ccccc2N1 | inactive |
| O=P1(N(CCCl)CCCl)OCCCN1CCCl (configuration not stated) | inactive |

| Structure (SMILES) | Potency |
| --- | --- |
| COc1ccc(N/C(=N/P(=O)(N2CCOCC2)N2CCOCC2)N2CCOCC2)cc1 | inactive |
| O=[N+]([O-])c1cc(Oc2ccc([N+](=O)[O-])cc2C(F)(F)F)cc([N+](=O)[O-])c1 | inactive |
| COP1(=S)c2c(C)nn(CCC#N)c2N=C(c2ccc(F)cc2)N1C (configuration not stated) | inactive |
| O=C(COc1ccccc1)OC1CN2CCC1CC2 (configuration not stated) | inactive |
| O=C(Nc1ccncc1[N+](=O)[O-])c1ccc([N+](=O)[O-])cc1[N+](=O)[O-] | inactive |
| CCOC(=O)c1ccc(NC(=O)C(C)(CCl)SC)cc1 (configuration not stated) | inactive |
| O=C(OC1CN2CCC1CC2)c1cccc([N+](=O)[O-])c1 (configuration not stated) | inactive |
| CCC(C)N(CC(C)C)C(=S)SC(NC(C)=O)C(Cl)(Cl)Cl (configuration not stated) | inactive |
| CC1CCNP(=O)(N(CCCl)CCCl)O1 (configuration not stated) | inactive |
| CCOC(=O)Nc1ccc([As](=O)(O)O)c(O)c1 | inactive |
| CCCCOc1ccc(C(=O)NCC2(N3CCCCC3)CCCCC2)cc1OC | inactive |
| Cc1cc(SC(NC(=O)c2ccccc2)C(Cl)(Cl)Cl)nc(C(C)C)n1 (configuration not stated) | inactive |
| CCOC(=O)Nc1cccc([As](=O)(O)O)c1 | inactive |
| O=[N+]([O-])c1ccc(Nc2ccc(Oc3ccc([N+](=O)[O-])cc3[N+](=O)[O-])cc2)c([N+](=O)[O-])c1 | inactive |
| Cc1cc(SC(NC=O)C(Cl)(Cl)Cl)ncn1 (configuration not stated) | inactive |
| O=P(Nc1ccccn1)(c1cccc2ccccc12)c1cccc2ccccc12 | inactive |
